# ChEMBL document CHEMBL1255389, “Exploiting the drug-activating properties of a novel trypanosomal nitroreductase” (Antimicrob Agents Chemother, 2010)
# System: Trypanosoma brucei
row,SMILES,Km
1,NP(=O)(OCc1ccc([N+](=O)[O-])cc1F)N(CCCl)CCCl (stereo not given),6.9 µM
2,NP(=O)(OCc1c(F)cc([N+](=O)[O-])cc1F)N(CCCl)CCCl (stereo not given),2.8 µM
3,NP(=O)(OCc1ccc([N+](=O)[O-])cc1Cl)N(CCCl)CCCl (stereo not given),8.4 µM
4,NP(=O)(OCc1ccc([N+](=O)[O-])cc1)N(CCCl)CCCl (stereo not given),80.3 µM
5,NP(=O)(OCc1ccc([N+](=O)[O-])cc1C(F)(F)F)N(CCCl)CCCl (stereo not given),2.4 µM
